{"source": "ChEMBL document CHEMBL6087482", "about": "“Discovery of INCB159020, an Orally Bioavailable KRAS G12D Inhibitor” (J Med Chem, 2025)", "key": {"[1]": {"target": "GTPase NRas (Homo sapiens) (UniProt P01111)", "test": "Binding affinity to wildtype NRAS (unknown origin) assessed as GDP-GTP exchange upto 10 uM preincubated for 4 hrs followed by GppNHp and SOS1 addition and measured after 2 hrs by fluorescence based plate reader analysis", "conditions": "time 6.0 hrs"}, "[2]": {"target": "GTPase HRas (Homo sapiens) (UniProt P01112)", "test": "Binding affinity to wildtype HRAS (unknown origin) assessed as GDP-GTP exchange upto 10 uM preincubated for 4 hrs followed by GppNHp and SOS1 addition and measured after 2 hrs by fluorescence based plate reader analysis", "conditions": "time 6.0 hrs"}}, "note": "The source made the active and inactive calls. No cut-off for these calls is given here."}
{"smiles": "Cc1cnc(-c2nc3c(F)c(-c4cccc(Cl)c4C)c(CCC#N)cc3c3c2cc([C@@H](C)N2CCOCC2=O)n3[C@H]2[C@H]3CN[C@@H]2C3)cn1", "values": [{"measurement": "Activity", "setting": "[1]", "value": "inactive"}, {"measurement": "Activity", "setting": "[2]", "value": "inactive"}]}
